The values below are quoted from earlier work in patent publication EP1935424A1, “PHARMACEUTICAL COMPOSITIONS COMPRISING COMBINED ANTIDIABETIC SUBSTANCES FOR USE IN DIABETES MELLITUS” (ESPINOZA ABDALA, Leopoldo de Jesús, priority 2005, dated 2007).

The structures appear in SMILES notation.

The conditions of this data set: oral / gastrointestinal tract, in words.

As for `CN(C)C(=N)N=C(N)N` [Metformin], the absorption entry is “slowly and incompletely absorbed”.
